This is an account of results in article PMC5011342 (2016).

One data set relates to expanded OPCs. The following applies: rat.
Data set [1] relates to acutely dissociated and purified rat OPCs. The data set can be described thus: Acute OL differentiation assay (MBP expression/cell, immunofluorescent image quantification).

For `CCN(Cc1ccncc1)C(=O)C(CO)c1ccccc1` (centres unmarked) [Tropicamide], in the data set with expanded OPCs, the “0.1 µM (% DMSO)” value turned out to be 96.3 % DMSO, the “1 µM (% DMSO)” value is given as 89.1 % DMSO and the “10 µM (% DMSO)” value came to 86.0 % DMSO. In data set [1] (read-out: 2 uM (% Quet)), the activation at 2 µM was determined as 1.2%. Besides, the activation at 10 µM in data set [1] (read-out: 10 uM (% Quet)) was 7.2%.
